Test results: patent US9115117B2, “Substituted piperidine compounds and their use as orexin receptor modulators” (JANSSEN PHARMACEUTICA NV, priority 2013, dated 2015)

Sequences of proteins named here, by UniProt entry; tags and fusion partners are left off.
UniProt O43614, whole entry: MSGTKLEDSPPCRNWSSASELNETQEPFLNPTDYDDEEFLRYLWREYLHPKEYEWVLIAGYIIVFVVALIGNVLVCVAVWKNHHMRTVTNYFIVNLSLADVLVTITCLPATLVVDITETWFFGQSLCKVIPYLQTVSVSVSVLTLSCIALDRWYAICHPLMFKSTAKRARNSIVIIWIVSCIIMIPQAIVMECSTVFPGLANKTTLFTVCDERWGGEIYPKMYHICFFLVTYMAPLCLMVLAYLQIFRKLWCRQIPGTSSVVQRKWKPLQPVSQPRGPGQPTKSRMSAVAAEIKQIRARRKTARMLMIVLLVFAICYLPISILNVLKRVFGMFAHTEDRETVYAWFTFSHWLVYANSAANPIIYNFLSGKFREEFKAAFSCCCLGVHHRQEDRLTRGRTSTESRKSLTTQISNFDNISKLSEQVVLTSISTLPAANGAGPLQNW

What was measured:
rat orexin 1 receptor = rat orexin 1 receptor (Rattus norvegicus, UniProt P56718); test: Rat orexin 1 receptor radioligand binding; conditions: HEK293 cells stably expressing rat orexin 1 receptor; apparent Ki; read-out: rOX1 Ki
Method: After centrifugation (2K×G, 5 min at 4° C.), the supernatant was aspirated and the pellets frozen and stored at −80° C. […] Each cell pellet from a 15 cm plate was resuspended in 10 mL, stored on ice, and homogenized for 45 sec prior to addition to the reactions. Competition binding experiments in 96 well polypropylene plates were performed using [^3H]-(1-(5-(2-fluoro-phenyl)-2-methyl-thiazol-4-yl)-1-((S)-2-(5-phenyl-(1,3,4)oxadiazol-2-ylmethyl)-pyrrolidin-1-yl)-methanone) (Moraveck Corporation, specific activity=35.3 Ci/mmol), diluted to a 10 nM concentration in PBS (4 nM final). […] The final concentration of DMSO in the reactions is equal to or less than 0.1%. Total and nonspecific binding was determined in the absence and presence of 10 μM almorexant. The total volume of each reaction is 200 μL (20 μL of diluted compounds, 80 μL of [3H]-(1-(5-(2-fluoro-phenyl)-2-methyl-thiazol-4-yl)-1-((S)-2-(5-phenyl-(1,3,4)oxadiazol-2-ylmethyl)-pyrrolidin-1-yl)-methanone) diluted in PBS and 100 μL of the cell suspension). […] The plates were washed 3 times by aspirating 30 ml PBS through the plates. Plates were dried in 55° C. oven for 60 min, scintillation fluid was added, and the radioactivity was counted on a Topcount (Packard).

human orexin 2 receptor = human orexin 2 receptor (Homo sapiens (Human), UniProt O43614); test: Human orexin 2 receptor radioligand binding ([3H]-EMPA); conditions: HEK293 stably expressing human orexin 2 receptor, apparent Ki, read-out: hOX2 Ki
Method: After centrifugation (2K×G, 5 min at 4° C.), the supernatant was aspirated and the pellets frozen and stored at −80° C. […] Each cell pellet from a 15 cm plate was resuspended in 10 mL, stored on ice, and homogenized for 45 sec just prior to addition to the reactions. Competition binding experiments in 96 well polypropylene plates were performed using [^3H]-EMPA (Moraveck Corporation, specific activity=29.6 Ci/mmol), diluted to a 5 nM concentration in PBS (2 nM final concentration). […] The final concentration of DMSO in the reactions is equal to or less than 0.1%. Total and nonspecific binding was determined in the absence and presence of […]. The total volume of each reaction is 200 μL (20 μL of diluted compounds, 80 μL of [^3H]-EMPA diluted in PBS and 100 μL of the cell suspension).
The plates were washed 3 times by aspirating 30 ml PBS through the plates. Plates were dried in 55° C. oven for 60 min, scintillation fluid was added, and the radioactivity was counted on a Topcount (Packard).

human orexin 1 receptor = human orexin 1 receptor (Homo sapiens, UniProt O43613); test: Human orexin 1 receptor radioligand binding; conditions: CHO cells stably expressing human orexin 1 receptor; apparent Ki; read-out: hOX1 Ki
Method: The in vitro affinity of the compounds of the invention for the rat/human orexin 1 and human orexin 2 receptors was determined by competitive radioligand binding using [^3H](1-(5-(2-fluoro-phenyl)-2-methyl-thiazol-4-yl)-1-((S)-2-(5-phenyl-(1,3,4)oxadiazol-2-ylmethyl)-pyrrolidin-1-yl)-methanone)(Langmead et al., 2004) and [^3H]EMPA (n-ethyl-2[96-methoxy-pyridin-3-yl)-(toluene-2-sulfonyl)-amino]-N-pyridin-3-ylmethyl acetamide), respectively (Langmead et al., 2004, British Journal of Pharmacology 141:340-346; Malherbe et al., 2004, British Journal of Pharmacology 156:1326-41).
Human Embryonic Kidney 293 cells (HEK293) stably expressing rat orexin 1 receptor (Genebank accession number NM_001525) or Chinese ovary cells (CHO) stably expressing human orexin 1 receptor (Genebank accession number NM_001526) were grown to confluency in DMEM (Hyclone, cat #SH30022), 10% FBS, 1× Pen/Strep, 1× sodium pyruvate, 10 mM HEPES, 600 µg/mL G418 and DMEM/F12 (Gibco, Cat #11039), 10% FBS, 1× Pen/Strep, 600 µg/mL G418 media, respectively on 150 cm^2 tissue culture plates, washed with 5 mM EDTA in PBS (HyClone Dulbecco's Phoshpate Buffered Saline 1× with Calcium and Magnesium, Cat #SH30264.01, hereafter referred to simply as PBS) and scraped into 50 ml tubes. […] Total and nonspecific binding was determined in the absence and presence of 10 μM almorexant. […]

COc1c(F)cccc1C(=O)N1CCC[C@@H](Nc2ccc(Br)cn2)[C@@H]1C (racemic) [Example 43, (±)-trans-(3-((5-bromopyridin-2-yl)amino)-2-methylpiperidin-1-yl)(3-fluoro-2-methoxyphenyl)methanone]
Ki (rat orexin 1 receptor): 0.715 µM
Ki (human orexin 2 receptor): 4.6 µM

C[C@H]1[C@H](Nc2nccc(-c3ccccc3)n2)CCCN1C(=O)c1ccccc1-n1nccn1 (racemic) [Example 51, (±)-trans-(2-(2H-1,2,3-triazol-2-yl)phenyl)(2-methyl-3-((4-phenylpyrimidin-2-yl)amino)piperidin-1-yl)methanone]
Ki (rat orexin 1 receptor): 0.341 µM

COc1c(F)cccc1C(=O)N1CCC[C@@H](Nc2nccc(-c3ccccc3)n2)[C@@H]1C (racemic) [Example 52, (±)-trans-(3-fluoro-2-methoxyphenyl)(2-methyl-3-((4-phenylpyrimidin-2-yl)amino)piperidin-1-yl)methanone]
Ki (rat orexin 1 receptor): 6.2 µM

CCOc1ccccc1C(=O)N1CCC[C@@H](Nc2nccc(-c3ccccc3)n2)[C@@H]1C (racemic) [Example 53, (±)-trans-(2-ethoxyphenyl)(2-methyl-3-((4-phenylpyrimidin-2-yl)amino)piperidin-1-yl)methanone]
Ki (rat orexin 1 receptor): 0.715 µM

C[C@@H]1[C@H](Nc2ccc(Br)cn2)CCCN1C(=O)c1ccccc1-n1nccn1 (racemic) [Example 57, (±)-cis-(2-(2H-1,2,3-triazol-2-yl)phenyl)(3-((5-bromopyridin-2-yl)amino)-2-methylpiperidin-1-yl)methanone]
Ki (human orexin 2 receptor): > 10 µM

COc1c(F)cccc1C(=O)N1CCC[C@@H](Nc2ccc(Br)cn2)[C@H]1C (racemic) [Example 58, (±)-cis-(3-(5-bromopyridin-2-yl)amino)-2-methylpiperidin-1-yl)(3-fluoro-2-methoxyphenyl)methanone]
Ki (rat orexin 1 receptor): > 10 µM
Ki (human orexin 2 receptor): > 10 µM

C[C@@H]1[C@H](Nc2nccc(-c3ccccc3)n2)CCCN1C(=O)c1ccccc1-n1nccn1 (racemic) [Example 66, (±)-cis-(2-(2H-1,2,3-triazol-2-yl)phenyl)(2-methyl-3-((4-phenylpyrimidin-2-yl)amino)piperidin-1-yl)methanone]
Ki (rat orexin 1 receptor): 0.57 µM

COc1c(F)cccc1C(=O)N1CCC[C@@H](Nc2nccc(-c3ccccc3)n2)[C@H]1C (racemic) [Example 67, (±)-cis-(3-fluoro-2-methoxyphenyl)(2-methyl-3-((4-phenylpyrimidin-2-yl)amino)piperidin-1-yl)methanone]
Ki (rat orexin 1 receptor): 0.84 µM

CCOc1ccccc1C(=O)N1CCC[C@@H](Nc2nccc(-c3ccccc3)n2)[C@H]1C (racemic) [Example 68, (±)-cis-(2-ethoxyphenyl)(2-methyl-3-((4-phenylpyrimidin-2-yl)amino)piperidin-1-yl)methanone]
Ki (rat orexin 1 receptor): 1.4 µM

Cc1ccc(-n2nccn2)c(C(=O)N2CCC[C@@H](Nc3ccc(C(F)(F)F)cn3)[C@@H]2C)n1 [Example 87, ((2S,3R)-2-methyl-3-((5-(trifluoromethyl)pyridin-2-yl)amino)piperidin-1-yl)(6-methyl-3-(2H-1,2,3-triazol-2-yl)pyridin-2-yl)methanone]
Ki (rat orexin 1 receptor): 0.007 µM
Ki (human orexin 2 receptor): 0.154 µM
Ki (human orexin 1 receptor): 0.012 µM

C[C@H]1[C@H](Nc2ccc(Cl)cn2)CCCN1C(=O)c1ccccc1-n1nccn1 [Example 100, (2-(2H-1,2,3-triazol-2-yl)phenyl)((2S,3R)-3-((5-chloropyridin-2-yl)amino)-2-methylpiperidin-1-yl)methanone]
Ki (rat orexin 1 receptor): 0.008 µM
